For three molecules, IC50 results are on record in the Kinase Knowledgebase extract (Sharma et al. 2016).

By UniProt entry, the sequences of proteins in these tests, tags left out. Where a name states a change or a piece, a line headed by the entry shows the natural chain unless it says otherwise.
UniProt P42336, whole entry, looked up: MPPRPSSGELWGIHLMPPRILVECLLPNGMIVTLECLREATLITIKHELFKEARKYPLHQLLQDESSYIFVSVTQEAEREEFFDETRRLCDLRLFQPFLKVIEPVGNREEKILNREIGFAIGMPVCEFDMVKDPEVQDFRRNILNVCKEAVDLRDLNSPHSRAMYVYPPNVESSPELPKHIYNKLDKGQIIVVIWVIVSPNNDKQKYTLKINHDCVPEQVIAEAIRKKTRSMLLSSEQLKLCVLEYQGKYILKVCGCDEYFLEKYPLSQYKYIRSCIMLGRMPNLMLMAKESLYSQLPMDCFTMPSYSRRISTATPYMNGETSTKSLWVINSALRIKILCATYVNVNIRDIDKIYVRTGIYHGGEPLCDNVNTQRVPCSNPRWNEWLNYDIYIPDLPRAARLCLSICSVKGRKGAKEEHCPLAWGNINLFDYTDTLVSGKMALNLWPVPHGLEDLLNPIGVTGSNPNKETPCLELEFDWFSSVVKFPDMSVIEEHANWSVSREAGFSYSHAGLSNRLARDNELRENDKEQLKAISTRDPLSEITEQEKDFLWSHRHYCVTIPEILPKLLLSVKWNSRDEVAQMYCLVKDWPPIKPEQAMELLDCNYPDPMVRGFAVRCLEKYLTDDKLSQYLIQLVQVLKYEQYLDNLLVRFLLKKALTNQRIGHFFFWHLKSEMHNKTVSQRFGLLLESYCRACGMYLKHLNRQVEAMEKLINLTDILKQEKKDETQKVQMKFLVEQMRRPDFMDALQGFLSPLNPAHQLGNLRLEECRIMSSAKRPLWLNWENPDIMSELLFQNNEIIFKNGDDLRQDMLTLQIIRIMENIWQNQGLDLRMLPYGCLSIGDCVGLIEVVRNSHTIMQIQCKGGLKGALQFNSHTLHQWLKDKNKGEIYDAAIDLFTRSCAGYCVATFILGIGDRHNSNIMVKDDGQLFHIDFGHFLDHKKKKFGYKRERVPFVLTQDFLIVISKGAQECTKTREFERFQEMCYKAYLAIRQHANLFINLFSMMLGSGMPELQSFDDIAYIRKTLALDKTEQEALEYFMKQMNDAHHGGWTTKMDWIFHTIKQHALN
UniProt P42338: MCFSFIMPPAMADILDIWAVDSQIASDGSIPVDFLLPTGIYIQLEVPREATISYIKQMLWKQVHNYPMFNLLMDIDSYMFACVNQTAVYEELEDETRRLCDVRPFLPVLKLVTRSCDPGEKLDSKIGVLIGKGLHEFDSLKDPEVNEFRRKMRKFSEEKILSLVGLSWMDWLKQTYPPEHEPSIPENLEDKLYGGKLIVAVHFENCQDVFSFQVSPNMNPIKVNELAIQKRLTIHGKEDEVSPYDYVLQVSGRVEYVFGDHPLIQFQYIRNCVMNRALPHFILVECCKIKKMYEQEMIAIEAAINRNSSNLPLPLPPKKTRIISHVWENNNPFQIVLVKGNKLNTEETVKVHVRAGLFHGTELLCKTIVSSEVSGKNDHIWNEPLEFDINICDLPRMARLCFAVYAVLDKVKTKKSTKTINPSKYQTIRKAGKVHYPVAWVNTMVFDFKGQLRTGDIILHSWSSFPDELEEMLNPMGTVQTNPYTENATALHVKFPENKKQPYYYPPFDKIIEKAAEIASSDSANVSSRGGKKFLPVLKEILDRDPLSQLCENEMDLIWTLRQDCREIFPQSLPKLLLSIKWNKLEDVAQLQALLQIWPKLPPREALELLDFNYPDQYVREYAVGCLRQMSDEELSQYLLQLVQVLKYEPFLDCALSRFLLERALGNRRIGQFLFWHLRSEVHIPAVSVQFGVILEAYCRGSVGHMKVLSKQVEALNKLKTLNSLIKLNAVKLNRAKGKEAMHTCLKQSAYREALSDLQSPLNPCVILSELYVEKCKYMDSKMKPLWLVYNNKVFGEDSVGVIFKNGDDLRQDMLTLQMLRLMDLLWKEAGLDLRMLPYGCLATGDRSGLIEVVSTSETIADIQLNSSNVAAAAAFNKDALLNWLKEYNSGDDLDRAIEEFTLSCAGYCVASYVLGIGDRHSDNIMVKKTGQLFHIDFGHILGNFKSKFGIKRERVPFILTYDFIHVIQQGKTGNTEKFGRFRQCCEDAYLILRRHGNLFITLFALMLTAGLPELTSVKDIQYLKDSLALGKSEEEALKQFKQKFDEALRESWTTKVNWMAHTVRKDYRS

The target in assay [1] is PIK3CA (human) (UniProt P42336). As to the kind of experiment: Enzyme Assay.
Assay [2] shares this target. Kind of assay: Cell-Based Assay. Conditions: rat-1.
The target of assay [3] is PIK3CB (Human) (UniProt P42338). Kind of assay: Enzyme Assay.
Assay [4] shares this target. As to the kind of experiment: Cell-Based Assay. As to conditions: rat-1.

`CC[C@H]1[C@H](c2ccc(OC)cc2)OC(=O)N1c1cc(-c2cnc(N)nc2C(F)(F)F)nc(N2CCOCC2)n1` gave an IC50 on PIK3CA (human) [1] of 78 nM.
Take `CC[C@@H]1[C@@H](c2cccc(OC)c2)OC(=O)N1c1cc(-c2cnc(N)nc2C(F)(F)F)nc(N2CCOCC2)n1`: the results for the IC50 on PIK3CA (human) [1] and against PIK3CA (human) [2] were 71 nM and 930 nM, respectively.
With `Nc1ncc(-c2cc(N3CCOCC3)nc(N3CCOCC3)n2)c(C(F)(F)F)n1`, the figures for the IC50 against PIK3CB (Human) [3] and on PIK3CB (Human) [4] were 15 nM and 156 nM, respectively.

The term IC50 denotes the concentration that inhibits the measured activity by half. Read a low IC50 as higher potency.
